We go through 63 compounds from PubChem BioAssay AID2101 (National Center for Advancing Translational Sciences (NCATS), 2009).

SMILES strings stand for the structures. Several values for one entry are separate records, joined by “and”; a condition that tells them apart may be missing. Equal entries are not always repeated. Only a part is listed here, and it is no random draw. Inconclusive results are not listed. Activity calls are given as the source filed them. Calls follow the shape of the dose curve; as a rule, active = well fitted inhibition curve with a large enough effect; inconclusive = small, poorly fitted or top-dose-only effect, or effect the other way, or another doubt; inactive = no such curve, though single readings can be large or run the other way.

The test deals with Lysosomal acid glucosylceramidase (Homo sapiens) (UniProt P04062). The test is described as follows: qHTS Assay for Inhibitors and Activators of N370S glucocerebrosidase as a Potential Chaperone Treatment of Gaucher Disease.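 Also: 0% = full enzyme activity and -100% = no enzyme basal.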 The following applies: N370S GC spleen homogenate, 4MU-glucoside fluorescence; at 59.4 µM (top of the series) unless noted. An excerpt: NIH Chemical Genomics Center [NCGC]
NIH Molecular Libraries Probe Production Centers Network [MLPCN]
Assay Submitter (PI): Wei Zheng
Glucocerebrosidase (GC) catalyzes the hydrolysis of beta-glucocerebroside to glucose and ceramide in lysosomes. Mutations in the glucocerebrosidase gene result in Gaucher disease, an autosomal recessive lysosomal storage disorder. Many of the mutations encountered in patients with Gaucher disease are missense alterations that may cause misfolding, decreased stability and/or mistrafficking of this lysosomal protein. […] These inhibitors include iminosugar analogs and three non-iminosugar inhibitors identified from a previous HTS of 62,000 compounds with the wild type recombinant enzyme. However, the enhancement of enzyme activity by the chaperone action of an enzyme inhibitor must be balanced against the direct inhibition of the enzyme. An enzyme activator could also function as a chaperone by binding to the enzyme and helping to correct its misfolding and mistrafficking. While activators for GC have not yet been identified, they may have better therapeutic potential than inhibitors. Therefore the discovery and development of chemical activators may provide a new strategy for the chaperone therapy.
We have optimized a new assay using N370S mutant GC derived from the spleen of a Gaucher patient. […] In addition, the MLPCN compound library has expanded, which increases the chance of finding new and better probes.
NCGC Assay Protocol Summary:
This is a fluorogenic enzyme assay with 4-methylumbelliferyl-beta-D-glucopyranoside as the substrate and N370S glucocerebrosidase from human spleen homogenate as the enzyme preparation. Upon the hydrolysis of this fluorogenic substrate, the resulting product, […] which can be detected by a standard fluorescence plate reader. Data were normalized to the controls for basal activity (without enzyme) and 100% activity (with enzyme). The AC50 values were determined from concentration-response data modeled with the standard Hill equation.
Assay buffer: 50 mM citric acid (titrated with potassium phosphate to pH 5.0), 100 mM potassium chloride, 10 mM sodium chloride, 1 mM magnesium chloride, 0.01% Tween-20.
1536-well assay protocol:
(1) Add 2 ul/well of spleen homogenate (27 ug final)
(2) Add 23 nL compounds in DMSO solution. The final titration was 0.5 nM to 58 uM.
(3) Add 2 ul of substrate (1 mM final)
(4) Incubate at 37C for 40 min.
(5) Add 2 ul stop solution (1M NaOH and 1M Glycine mixture, pH 10)
(6) Detect the assay plate in a ViewLux plate reader (PerkinElmer) with Ex=365 nm and Em=440nm.
Keywords: Glucocerebrosidase, beta-glucosidase, Gaucher Disease, pharmacological chaperone, chaperone therapy, high throughput screening, glucocerebrosidase inhibitor, MLSMR, MLSCN, NIH Roadmap, qHTS and NCGC
(In general: qHTS replaces the single test concentration by a dilution series.)
`CC(C)C(=O)NC(Sc1ccccc1)C(Cl)(Cl)Cl` (stereo not drawn): the activity change, negative = inhibition was inactive: 1.69%. For the compound `O=P(Nc1nccs1)(c1ccccc1)c1ccccc1`, the activity change, negative = inhibition is inactive: -1.72%.

On to `c1nnnn1CCn1cnnn1`, for which the activity change, negative = inhibition was inactive: 6.7%. Under `CCC(C)(OOC(C)(C)C)OOC(C)(C)C` stands inactive: -1.78%; under `O=[As](O)(c1ccccc1)c1ccc(O)cc1`, inactive: -25.4%; under `O=[N+]([O-])c1ccc(O)c(/C=N/Nc2ccc([N+](=O)[O-])cc2[N+](=O)[O-])c1`, inactive: -4.26%. Under `O=[N+]([O-])c1ncn(CCn2cnc([N+](=O)[O-])n2)n1` stands inactive: -1.19%. In the case of `CC(=O)NC(SC(=S)N(C)C)C(Cl)(Cl)Cl` (stereo not drawn), the activity change, negative = inhibition was inactive: 6.7%. Under `O=C(OC1CN2CCC1CC2)c1cccc(Cl)c1` (stereo not drawn) stands inactive: -3.45%; under `C(Cc1nn[nH]n1)Cc1nn[nH]n1`, inactive: 22.6%. As for `Nc1ccc([As](=O)(O)c2ccc([N+](=O)[O-])cc2)cc1`, the figure is inactive: 0.858%.

As for `O=P(Nc1ccccn1)(c1ccc(Br)cc1)c1ccc(Br)cc1`, the activity change, negative = inhibition is inactive: 9.28%. As for `CN(C)C1(CNC(=O)c2ccc(Cl)c(S(N)(=O)=O)c2)CCCCC1`, the figure is inactive: -18%; as for `Cc1cc([N+](=O)[O-])cc([N+](=O)[O-])c1O`, inactive: -3.37%; as for `CN(C(=O)Cc1ccccc1)[C@H]1CC[C@@]2(CCCO2)C[C@@H]1N1CCCC1`, inactive: -4.02%. Under `O=P(Nc1nc2ccccc2s1)(c1ccccc1)c1ccccc1` stands inactive: 22.1%. Regarding `C[C@H]1OP(=O)(Oc2ccccc2)[C@H](O)[C@H](O)[C@H]1N=[N+]=[N-]` (stereo partly drawn), the activity change, negative = inhibition was inactive: 0.595%. As for `CN(C(=O)Cc1ccc(Cl)c(Cl)c1)[C@@H]1CCCC[C@@H]1N1CCCC1`, the figure is inactive: -7.96%; as for `O=C(OC1CN2CCC1CC2)c1ccccc1` (stereo not drawn), inactive: -2.18%. Under `CCC(=O)N1C2C3N(C(=O)CC)C1C1N(C(=O)CC)C(C(N1C(=O)CC)N3C(=O)CC)N2C(=O)CC` stands inactive: -2.24%. Under `COC(=O)c1cc2c(s1)N=C(c1ccccc1)N(C)P2(=O)N1CCOCC1` (stereo not drawn) stands inactive: 0.235%; under `Cc1ccc(OP(=O)(Nc2ccccn2)Oc2ccc(C)cc2)cc1`, inactive: 13.3%.

Regarding `CC(=O)NC(SC(=S)N(CC(C)C)CC(C)C)C(Cl)(Cl)Cl` (stereo not drawn), the activity change, negative = inhibition is inactive: -0.14%.

Turning to `O=c1c2cc([N+](=O)[O-])ccc2[nH]c2c([N+](=O)[O-])cc([N+](=O)[O-])cc12`, the activity change, negative = inhibition was inactive: -6.57%.

Take `CN(C)C(=O)Oc1noc2ccccc12`: the activity change, negative = inhibition is inactive: 3.35%. As for `c1ccc(-c2nn[nH]n2)c(-c2nn[nH]n2)c1`, the figure is inactive: 13.4%. Under `CCOC(=O)NC(Sc1ccccc1)C(Cl)(Cl)Cl` (stereo not drawn) stands inactive: 2.9% [at 12.8 µM].

`Cc1ccc(NP(=O)(Oc2cccc(C)c2)Oc2cccc(C)c2)nc1`: the activity change, negative = inhibition was inactive: 5.7%. As to `CCNC(=S)/N=C(\N)N[N+](=O)[O-]`, the activity change, negative = inhibition is inactive: 6.63%. As for `O=C(NC1CCS(=O)(=O)C1)NP(=S)(Oc1ccccc1)Oc1ccccc1` (stereo not drawn), the figure is inactive: 5.22%; as for `C[C@H]1OP(=O)(Oc2ccccc2)C[C@@H]2O[C@@H]21` (stereo partly drawn), inactive: 4.18%; as for `C[C@@H]1C=CCP(=O)(Oc2ccccc2)O1` (stereo partly drawn), inactive: -1.55%. Under `CC(=O)c1ccc(N2CC2c2ccncc2)cc1` (stereo not drawn) stands inactive: 4.51%; under `CC(=O)Nc1ccc([As](=O)(O)O)c(O)c1`, inactive: -1.9%. As for `CC(=O)Nc1ccc(Oc2c([N+](=O)[O-])cc([N+](=O)[O-])cc2[N+](=O)[O-])cc1`, the figure is inactive: -1.79%. With `O=P1(Nc2nc3ccc(Cl)cc3s2)COc2ccccc2O1` (stereo not drawn), the activity change, negative = inhibition was inactive: -9.96%. Under `CC(C)(C)C(=O)NC(Sc1ccccc1)C(Cl)(Cl)Cl` (stereo not drawn) stands inactive: 9.27%; under `Oc1ccccc1CNc1ccccn1`, inactive: 10.2% [at 12.8 µM]. As for `O=C(NC(Sc1ccncn1)C(Cl)(Cl)Cl)c1ccccc1` (stereo not drawn), the activity change, negative = inhibition is inactive: -27.2%. As to `Cc1c2non([O-])c-2c(C)[n+](=O)[n+]1[O-]`, the activity change, negative = inhibition was inactive: -1.61%.

As for `Nc1cc(N)c2nonc2c1[N+](=O)[O-]`, the activity change, negative = inhibition was inactive: 0.773%.

As for `CC(C)CC(=O)NC(Sc1ccc(Cl)cc1)C(Cl)(Cl)Cl` (stereo not drawn), the activity change, negative = inhibition was inactive: 28.1%. As for `CN(C(=O)Cc1ccc(Cl)c(Cl)c1)[C@H]1CCCC[C@H]1N1CCCC1`, the figure is inactive: -6.98%; as for `Cc1ccc(N/C(=N/P(=O)(N2CCOCC2)N2CCOCC2)N2CCOCC2)cc1`, inactive: 1.62%; as for `NC(=O)c1cc([N+](=O)[O-])cc([N+](=O)[O-])c1N`, inactive: -2.79%.

On to `CN1CCCC(OC(=O)C(c2ccccc2)c2ccccc2)C1` (stereo not drawn), for which the activity change, negative = inhibition is inactive: 9.24%. Under `Clc1ccc(Cl)c(NC2=NCC(CBr)S2)c1` (stereo not drawn) stands inactive: -4.88%; under `Cc1ccc(OP(=O)(Nc2nccs2)Oc2ccc(C)cc2)cc1`, inactive: 6.87%. As for `O=[N+]([O-])c1cc([N+](=O)[O-])c(CCN2CCOCC2)c([N+](=O)[O-])c1`, the figure is inactive: -11.7%; as for `Nc1cccc2ccc([As](=O)(O)O)cc12`, inactive: 12.9%. Turning to `CCN(N=Nc1nonc1N)c1nonc1N`, the activity change, negative = inhibition was inactive: 7.89%.

As for `O=P(Nc1nc2ccc(Cl)cc2s1)(c1ccccc1)c1ccccc1`, the activity change, negative = inhibition was inactive: 23.3%. Under `CC(=O)Nc1ccc([As](=O)(O)O)cc1` stands inactive: 5.83%; under `O=C(O)c1ccccc1[As](=O)(O)O`, inactive: 3.1%. Under `Cc1cc(SC(NC(=O)c2ccc(F)cc2)C(Cl)(Cl)Cl)ncn1` (stereo not drawn) stands inactive: -1.23%; under `CCOP(=O)(Nc1ccccc1)OCC`, inactive: 1.19% and inactive: 8.39%; under `Cc1ccc(NP(=O)(Oc2ccccc2F)Oc2ccccc2F)nc1`, inactive: 12.4%. As for `CC(C)(C)C(=O)NC(Sc1ccncn1)C(Cl)(Cl)Cl` (stereo not drawn), the figure is inactive: 24.1%. For the compound `O=C(O)CNc1ccc([As](=O)(O)O)cc1`, the activity change, negative = inhibition was inactive: 1.24%. Under `O=[N+]([O-])c1cccc(NC2=NCC(CBr)S2)c1` (stereo not drawn) stands inactive: -9.53%; under `O=C(Nc1cc([As](=O)(O)O)ccc1O)c1ccccc1`, inactive: 1.15%; under `CCN(/C(=N/P(=O)(N1CCOCC1)N1CCOCC1)N1CCOCC1)c1ccc(OC)cc1`, inactive: -4.47%. Under `Nc1ccc([As](=O)(O)c2ccc(N)cc2)cc1` stands inactive: -18.3%.
